According to ChEMBL document CHEMBL4425144, “Discovery and Structural Optimization of N5-Substituted 6,7-Dioxo-6,7-dihydropteridines as Potent and Selective Epidermal Growth Factor Receptor (EGFR) Inhibitors against L858R/T790M Resistance Mutation” (J Med Chem, 2016):

Assays:
Homo sapiens [1] = organism: Homo sapiens; test: Selectivity index, ratio of IC50 for wild type EGFR kinase domain (unknown origin) to IC50 for EGFR kinase domain L858R/T790M mutant (unknown origin)
Homo sapiens [2] = organism: Homo sapiens; test: Selectivity index, ratio of inhibition of EGF-induced EGFR kinase domain phosphorylation in human NCI-H1975 cells at 1000 nM to inhibition of EGF-induced EGFR kinase domain L858R/T790M mutant phosphorylation in human NCI-H1975 cells at 1 to 1000 nM; type: cell-based

Compound | Ratio IC50 (Homo sapiens [1]) | Ratio (Homo sapiens [2])
C=CC(=O)Nc1cccc(-n2c(=O)c(=O)n(CC)c3cnc(Nc4ccc(N5CCN(C)CC5)cc4OC)nc32)c1 | 67 | 
C=CC(=O)Nc1cccc(-n2c(=O)c(=O)n(CCC)c3cnc(Nc4ccc(N5CCN(C)CC5)cc4OC)nc32)c1 | 3.7 | 
C=CC(=O)Nc1cccc(-n2c(=O)c(=O)n(C(C)C)c3cnc(Nc4ccc(N5CCC(N6CCN(C)CC6)CC5)cc4OC)nc32)c1 | 3.6 | 
C=CC(=O)Nc1cccc(-n2c(=O)c(=O)[nH]c3cnc(Nc4ccc(N5CCN(C)CC5)cc4OC)nc32)c1 | 1.1 | 
C=CC(=O)Nc1cccc(-n2c(=O)c(=O)n(C(C)C)c3cnc(Nc4ccc(N5CCN(C)CC5)cc4OC)nc32)c1 | 6.7 | 10
C=CC(=O)Nc1cccc(-n2c(=O)c(=O)n(C(C)C)c3cnc(Nc4ccc(N5CCN(C)CC5)c(OC)c4)nc32)c1 | 6.6 | 
C=CC(=O)Nc1cccc(-n2c(=O)c(=O)n(C(C)C)c3cnc(Nc4ccc(N(C)CCN(C)C)cc4OC)nc32)c1 | 1.4 | 
C=CC(=O)Nc1cccc(-n2c(=O)c(=O)n(C)c3cnc(Nc4ccc(N5CCN(C)CC5)cc4OC)nc32)c1 | 101 | 
